Three molecules from publication PMC7675038, “A Single‐Stranded DNA‐Encoded Chemical Library Based on a Stereoisomeric Scaffold Enables Ligand Discovery by Modular Assembly of Building Blocks” (Advanced Science, 2020) can be followed below.

By UniProt entry, the sequences of proteins in these tests, tags left out. Residues count along the entry.
UniProt P42336, whole entry: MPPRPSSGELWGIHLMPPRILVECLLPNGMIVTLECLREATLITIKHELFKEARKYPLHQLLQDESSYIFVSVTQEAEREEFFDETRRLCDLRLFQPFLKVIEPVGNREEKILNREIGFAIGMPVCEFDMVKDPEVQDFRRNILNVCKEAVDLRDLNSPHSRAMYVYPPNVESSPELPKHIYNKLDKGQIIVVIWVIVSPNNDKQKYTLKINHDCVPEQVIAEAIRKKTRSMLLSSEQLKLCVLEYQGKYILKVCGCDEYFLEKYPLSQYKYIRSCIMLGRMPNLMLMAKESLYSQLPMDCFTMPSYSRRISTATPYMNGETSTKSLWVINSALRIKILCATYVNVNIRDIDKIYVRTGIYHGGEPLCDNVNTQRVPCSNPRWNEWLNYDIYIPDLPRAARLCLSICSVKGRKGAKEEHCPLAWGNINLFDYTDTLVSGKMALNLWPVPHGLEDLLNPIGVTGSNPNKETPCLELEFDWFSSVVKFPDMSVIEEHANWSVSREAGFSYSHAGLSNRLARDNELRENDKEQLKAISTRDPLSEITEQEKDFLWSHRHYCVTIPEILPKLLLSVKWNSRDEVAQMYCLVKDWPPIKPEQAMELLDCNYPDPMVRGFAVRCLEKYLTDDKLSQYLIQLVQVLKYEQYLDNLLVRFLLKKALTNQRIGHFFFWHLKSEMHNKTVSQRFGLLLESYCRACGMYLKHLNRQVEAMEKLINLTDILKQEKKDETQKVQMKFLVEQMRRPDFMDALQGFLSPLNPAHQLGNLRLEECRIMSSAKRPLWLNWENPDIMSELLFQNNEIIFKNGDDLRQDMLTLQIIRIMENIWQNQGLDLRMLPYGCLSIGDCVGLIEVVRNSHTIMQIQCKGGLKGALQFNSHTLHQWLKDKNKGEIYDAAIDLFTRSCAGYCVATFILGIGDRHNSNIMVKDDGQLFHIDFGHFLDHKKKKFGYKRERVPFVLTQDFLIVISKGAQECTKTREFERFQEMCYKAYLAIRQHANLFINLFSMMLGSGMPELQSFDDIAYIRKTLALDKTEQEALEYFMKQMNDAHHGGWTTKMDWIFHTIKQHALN
UniProt P27986, 2-724 partner limits assumed: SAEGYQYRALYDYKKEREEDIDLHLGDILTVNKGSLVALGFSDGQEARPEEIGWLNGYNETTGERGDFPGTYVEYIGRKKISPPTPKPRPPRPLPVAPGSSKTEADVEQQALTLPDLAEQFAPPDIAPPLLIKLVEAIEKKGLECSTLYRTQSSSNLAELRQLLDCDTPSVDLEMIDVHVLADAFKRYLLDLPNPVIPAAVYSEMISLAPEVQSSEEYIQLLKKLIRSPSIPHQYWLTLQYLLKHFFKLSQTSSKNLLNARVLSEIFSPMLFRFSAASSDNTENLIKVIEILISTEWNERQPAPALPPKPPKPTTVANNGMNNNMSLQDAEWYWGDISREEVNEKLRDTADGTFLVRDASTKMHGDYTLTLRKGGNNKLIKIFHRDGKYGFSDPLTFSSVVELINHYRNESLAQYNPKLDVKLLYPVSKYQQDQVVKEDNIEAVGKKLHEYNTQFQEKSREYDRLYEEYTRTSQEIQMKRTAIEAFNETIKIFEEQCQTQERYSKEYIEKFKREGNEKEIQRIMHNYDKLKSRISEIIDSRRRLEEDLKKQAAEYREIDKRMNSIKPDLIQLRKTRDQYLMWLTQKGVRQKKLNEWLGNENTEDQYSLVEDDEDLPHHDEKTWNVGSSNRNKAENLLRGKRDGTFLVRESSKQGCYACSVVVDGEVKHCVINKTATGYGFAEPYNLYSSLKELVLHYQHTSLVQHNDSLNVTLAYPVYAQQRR

In this assay the target is PI3K (p110α/p85α) (Homo sapiens, UniProt P42336). As to the kind of experiment: ELISA. Format: binding. (In an ELISA, binding on a coated surface is turned into a signal by an enzyme label.)
One may read the Kd as the constant that tells how readily two partners part at equilibrium. Read a low Kd as a tighter complex. Consider `Cc1ccccc1OCc1cn([C@H](CCC(=O)N[C@@H](CCC(N)=O)C(=O)O)C(=O)Nc2ccc3c(cnn3C(F)F)c2)nn1`, for which the Kd was 9 µM. In the case of `NC(=O)CC[C@H](NC(=O)CC[C@@H](NC(=O)c1nccnc1N)C(=O)N1CCc2ccccc21)C(=O)O` it was 32 µM. Then `NC(=O)CC[C@H](NC(=O)CC[C@H](NC(=O)c1nccnc1N)C(=O)N1CCc2ccccc21)C(=O)O`, with 5 µM.
